# Key:
# Type in all cases: binding
# [1] = Isothermal titration calorimetry (ITC): IS adsorption; conditions: Tris-HCl buffer pH 7.4
# Protocol: (§1) Preliminary ITC experiments investigated the energetics of p-CS and IS adsorbing onto NU-1000 in Tris-HCl buffer at pH 7.4 (FIG. 16 panels (a)-(d), Table 5, and Table 6). […] Fitting the ITC thermograms using a single site adsorption model yielded the lowest errors (<10%) in all experiments.
# (§2) ITC experiments were performed using a VP-ITC titration microcalorimeter (MicroCal Inc.). […] Solutions of p-CS and IS were filtrated off through a syringe filter (PVDF membrane, 0.45 μm, Satorious Minisart Syringe Filter). All samples were degassed properly on a vacuum pump for 20 mins. […] All titrations were carried out at pH 7.4±0.1 in aqueous buffer solutions under the following measurement conditions: reference power (10 μcal s^−1), initial injection delay (600 s), stirring speed (307 rpm), feedback mode gain (high feedback), spacing between injections (500 s), and filter period (10 s). All other conditions are described in Table 6. All titration experiments were performed in triplicate. A thermodynamic profile of each binding interaction was determined by fitting the data with a single-site interaction model. Heats of dilution for uremic toxins were determined in control experiments, and these were subtracted from the integrated data before curve fitting.
# (§3) ITC has been widely used for studying enzymatic systems but it should also be applicable to MOF systems. In this section, the theory of ITC and the mathematical formulation behind it is briefly explained. Following the framework described in Lawrence Indyk et al., the binding of a single ligand, L (sulfate anion in this study), with a MOF receptor, M (MOF crystals in this study), can be considered (Indyk, L. et al., Methods Enzymol. 1998, 295, 350-364.): [M]+n[L] ? n[ML] (Eq. 9) [M]+[L] ? [ML] (Eq. 10) where ML is the ligand-bound MOF complex. The binding stoichiometry is given by n. Only single-site independent binding and one-to-one binding were considered in this case (n=1, Eq. 10). MOF crystals, especially NU-1000, should have several binding sites, but each site is thermodynamically identical and has similar affinity for sulfate ions. The equilibrium association constant, Ka, is defined as
# (§4) [formula] where V is the volume of the calorimetric cell, ΔH is the enthalpy of binding for formation of [ML]. Substituting Eqs. 11-13 into Eq. 14 allows ΔQ to be written explicitly in terms of Ka, ΔH, [MT], and [LT]. The integrated heats from each injection can be fit to a model as a function of molar ratio to determine heat from the standard parameters (Ka, ΔH, and n) in a single experiment. The value of ΔG is determined from the standard thermodynamic definition, ΔG=−RT ln(Ka), and the entropy of adsorption, ΔS, is calculated from ΔG=ΔH−TΔS.
# [2] = Isothermal titration calorimetry (ITC): p-CS adsorption; conditions: Tris-HCl buffer pH 7.4
# Protocol: as §1, §2, §3, §4
# [3] = Adsorption isotherm of p-cresyl sulfate on NU-1000 and HSA at 310 K (Freundlich)
substance,measurement,setting,value
"HSA: transport human serum albumin (HSA) in human blood, binds protein-bound uremic toxins",Ka,[1]; 25 °C,"6.16 ± 0.01 10^4, M^−1"
same,TΔS,[1]; 25 °C,-2.42 ± 0.05 kcal/mol
same,ΔG,[1]; 25 °C,-6.54 ± 0.01 kcal/mol
same,ΔH,[1]; 25 °C,-8.96 ± 0.05 kcal/mol
same,Ka,[1]; 30 °C,"5.53 ± 0.17 10^4, M^−1"
same,TΔS,[1]; 30 °C,-2.30 ± 0.40 kcal/mol
same,ΔG,[1]; 30 °C,-6.58 ± 0.02 kcal/mol
same,ΔH,[1]; 30 °C,-8.88 ± 0.42 kcal/mol
same,Ka,[1]; 37 °C,"3.91 ± 0.05 10^4, M^−1"
same,TΔS,[1]; 37 °C,-2.70 ± 0.06 kcal/mol
same,ΔG,[1]; 37 °C,-6.52 ± 0.01 kcal/mol
same,ΔH,[1]; 37 °C,-9.22 ± 0.06 kcal/mol
same,Ka,[2]; 25 °C,"0.69±0.07 10^4, M^−1"
same,TΔS,[2]; 25 °C,-0.84 ± 0.21 kcal/mol
same,ΔG,[2]; 25 °C,-5.23 ± 0.06 kcal/mol
same,ΔH,[2]; 25 °C,-6.08 ± 0.15 kcal/mol
same,Ka,[2]; 30 °C,"0.52 ± 0.01 10^4, M^−1"
same,TΔS,[2]; 30 °C,-0.61 ± 0.35 kcal/mol
same,ΔG,[2]; 30 °C,-5.16 ± 0.01 kcal/mol
same,ΔH,[2]; 30 °C,-5.77 ± 0.34 kcal/mol
same,Ka,[2]; 37 °C,"0.40 ± 0.01 10^4, M^−1"
same,TΔS,[2]; 37 °C,-0.30 ± 0.39 kcal/mol
same,ΔG,[2]; 37 °C,-5.07 ± 0.05 kcal/mol
same,ΔH,[2]; 37 °C,-5.37 ± 0.34 kcal/mol
same,Percentage of adsorbed p-cresyl sulfate on HSA (average),"[3]; initial concentration (Ci) 0.01 to 0.1 mM, 50 mg HSA in 1.0 mL 0.9% NaCl",82±5%
same,KF (Freundlich adsorption constant),[3]; p-cresyl sulfate,2.87 (mg g^−1)(L mg^−1)l/n
same,l/n (degree of nonlinearity and adsorption intensity),[3]; p-cresyl sulfate,0.97

# — patent publication US12403412B2, “Metal-organic frameworks for the removal of uremic toxins” (Northwestern University, priority 2018, dated 2025)
